# Biological target: Cyclin-dependent kinase 19 (Homo sapiens, UniProt Q9BWU1)
# Sequences of proteins named here, by UniProt entry; tags and fusion partners are left off. A change or cut given only in a name is not applied to a line headed by its entry.
# UniProt Q9BWU1: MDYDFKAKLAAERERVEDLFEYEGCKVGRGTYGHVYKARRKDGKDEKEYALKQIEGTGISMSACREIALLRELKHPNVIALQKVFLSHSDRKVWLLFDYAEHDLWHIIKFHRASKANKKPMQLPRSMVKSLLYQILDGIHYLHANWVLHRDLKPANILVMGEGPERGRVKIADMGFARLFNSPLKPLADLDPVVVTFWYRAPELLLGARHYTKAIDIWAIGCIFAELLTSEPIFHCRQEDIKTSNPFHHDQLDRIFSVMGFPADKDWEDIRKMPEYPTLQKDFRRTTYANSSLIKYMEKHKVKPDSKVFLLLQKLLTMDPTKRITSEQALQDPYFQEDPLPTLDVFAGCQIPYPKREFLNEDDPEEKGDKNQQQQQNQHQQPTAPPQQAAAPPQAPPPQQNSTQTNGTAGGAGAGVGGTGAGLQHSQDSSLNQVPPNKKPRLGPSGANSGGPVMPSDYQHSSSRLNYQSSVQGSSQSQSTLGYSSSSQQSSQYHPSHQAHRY
# Assay: Inhibition of CDK19 (unknown origin)
compound,measurement,value
CN1CCN(C(=O)c2ccc3cc(CCNc4ncnc5ccc(C#N)cc45)ccc3c2)CC1 [SENEXIN B],Kd,0.08 µM

# Source: ChEMBL document CHEMBL4806957, “Cdk8/cdk19 selective inhibitors and their use in anti-metastatic and chemopreventive methods for cancer” (2019)
